Results from PubChem BioAssay AID602141 (Sanford-Burnham Center for Chemical Genomics, 2011).
This is a selection; strong and weak results do not stand in their true shares. Some salts and complexes are drawn in separate pieces, as the source files them; their charges need not balance. The source made the active and inactive calls.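 Rule for the calls: active = corrected activity change at or below -50% at 5 µM; inactive = the rest.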

Test: cytotoxicity in KKLEB CF airway cells, primary screen, cytotoxicity control for CF NF-kB inhibitor project, cell-based, uHTS, fluorescence assay plates (AID 602141)
Details: KKLEB CF airway cells viability, ATPlite luminescence, overnight; at 5 µM; stronger effect = lower value; cells stimulated with P. aeruginosa culture filtrate

Structure (SMILES) | activity change (cytotoxicity)
CP(=S)(Nn1cnnc1)Oc1ccccc1 (stereo not given) | inactive: 3.9%
CP(=O)(Nc1ccccc1Br)Oc1ccccc1 (stereo not given) | inactive: -3.2%
COc1ccccc1OP(C)(=O)Nc1ccccc1 (stereo not given) | inactive: 1.8%
CCOC(=O)c1ccc(NP(C)(=O)Oc2ccc(OC)cc2)cc1 (stereo not given) | inactive: 11.8%
O=[N+]([O-])c1cc([N+](=O)[O-])c(O)c([N+](=O)[O-])c1.c1ccc(Oc2ccncc2)cc1 | inactive: 6%
CCOP(C)(=S)SCC(=O)NC(C)C(=O)O (stereo not given) | inactive: -3.9%
CP(=O)(Nc1ccccn1)Oc1ccc(Cl)cc1 (stereo not given) | inactive: -4%
CP(=O)(Oc1ccccc1)OC(c1ccccc1)C(F)(F)F (stereo not given) | inactive: 10.2%
Cc1ccc(Nc2c([N+](=O)[O-])cc([N+](=O)[O-])cc2[N+](=O)[O-])cc1 | inactive: 0.5%
Cc1cccc(C)c1OP(C)(=O)Nc1ccc(SC(F)(F)F)cc1 (stereo not given) | inactive: -1.7%
CP(=O)(Nc1ccc(SC(F)(F)F)cc1)Oc1ccc(Cl)cc1 (stereo not given) | inactive: -27%
Cc1cc(C)cc(OP(C)(=O)Nc2ccc(SC(F)(F)F)cc2)c1 (stereo not given) | inactive: 2%
CCc1ccc(OP(C)(=O)N2CCN(c3ccc([N+](=O)[O-])cc3)CC2)cc1 (stereo not given) | inactive: 2.4%
CP(=O)(NC(=O)Nc1ccccc1)Oc1ccccc1 (stereo not given) | inactive: 2.7%
CCN(CC)CCCOC(=O)C(O)(c1ccccc1)c1ccccc1 | inactive: 7.9%
Cc1ccc(NP(C)(=O)Oc2ccccc2)c(C)c1 (stereo not given) | inactive: 0.9%
COc1ccccc1OP(C)(=O)Nc1ccc(C)cc1 (stereo not given) | inactive: -4.9%
CCOC(=O)c1ccc(NP(C)(=O)Oc2ccccc2)cc1 (stereo not given) | inactive: -29.4%
Cc1cc(C)cc(OP(C)(N)=O)c1 (stereo not given) | inactive: 9.6%
COc1ccc(OP(C)(=O)Nc2cccc(F)c2)cc1 (stereo not given) | inactive: -10.3%
COc1ccccc1OP(C)(=O)Nc1cc(Cl)ccc1C (stereo not given) | inactive: -1.1%
O=[N+]([O-])c1cc([N+](=O)[O-])c(Nc2cccnc2)c([N+](=O)[O-])c1 | inactive: 8.5%
O=[N+]([O-])c1ccc2c(c1)C=Nc1ccccc1O2 | inactive: -40.8%
Cc1cccc(C)c1OP(C)(N)=O (stereo not given) | inactive: 9.7%

Structure (SMILES) | activity change (cytotoxicity)
CC(C)(C)c1ccc(OP(C)(=O)Nc2ccc(SC(F)(F)F)cc2)cc1 (stereo not given) | inactive: -13%
CC1=NCCc2c1[nH]c1ccccc21.O=[N+]([O-])c1cc([N+](=O)[O-])c(O)c([N+](=O)[O-])c1 | inactive: -5.7%
O=C(O)c1cccc(Nc2c([N+](=O)[O-])cc([N+](=O)[O-])cc2[N+](=O)[O-])c1 | inactive: -5.5%
Cc1ccc(C)c(NP(C)(=O)Oc2ccccc2)c1 (stereo not given) | inactive: -13.4%
CP(=O)(Nc1cccc(Br)c1)Oc1ccccc1 (stereo not given) | inactive: 18.1%
Cc1cc(C)cc(OP(C)(=O)Nc2ccccn2)c1 (stereo not given) | inactive: -6.2%
COc1ccccc1OP(C)(=O)Nc1cccc(Br)c1 (stereo not given) | inactive: 13.5%
CCOC(=O)c1ccc(NP(C)(=O)Oc2cc(C)cc(C)c2)cc1 (stereo not given) | inactive: -7.6%
Cc1cc(C)cc(OP(C)(=O)Nc2ccc(C)cc2C)c1 (stereo not given) | inactive: 2.9%
O=[N+]([O-])c1cc([N+](=O)[O-])c(-c2cnn(-c3ccccc3)c2)c([N+](=O)[O-])c1 | inactive: -23.4%
Cc1nc2ccc3ccccc3c2s1.O=[N+]([O-])c1cc([N+](=O)[O-])c(O)c([N+](=O)[O-])c1 | inactive: -15.3%
O=[N+]([O-])c1cc([N+](=O)[O-])c(-n2nnc3ccccc32)c([N+](=O)[O-])c1 | inactive: 5%
CN(Cc1cccnc1)C(=O)COc1ccc(Cl)c(Cl)c1.O=[N+]([O-])c1cc([N+](=O)[O-])c(O)c([N+](=O)[O-])c1 | inactive: 2.7%
COc1ccccc1OP(C)(=O)Nc1c(C)cccc1C (stereo not given) | inactive: -4.9%
CN1CCCCC1COC(=O)C1(O)c2ccccc2CCc2ccccc21 (stereo not given) | inactive: -1.9%
CP(=O)(Nc1ccc(SC(F)(F)F)cc1)Oc1ccccc1 (stereo not given) | inactive: -7.9%
CCCOc1ccc(NP(C)(=O)Oc2ccc(Cl)cc2)cc1 (stereo not given) | inactive: -1.1%
CCOC(=O)C(CC)C1=NC(C)(C)Cc2ccccc21.O=[N+]([O-])c1cc([N+](=O)[O-])c(O)c([N+](=O)[O-])c1 (stereo not given) | inactive: 6.7%
O=[N+]([O-])c1cc([N+](=O)[O-])c(Nc2nnnn2CCO)c([N+](=O)[O-])c1 | inactive: 2.8%
CC1=C2N=C(C=C3N=C(C(C)=C4[N-][C@@](C)([C@@H]5N=C1[C@](C)(CCC(=O)NC[C@@H](C)OP(=O)([O-])O[C@H]1[C@@H](O)[C@@H](n6cnc7cc(C)c(C)cc76)O[C@@H]1CO)[C@H]5CC(N)=O)[C@@](C)(CC(N)=O)[C@@H]4CCC(N)=O)[C@@](C)(CC(N)=O)[C@@H]3CCC(N)=O)C(C)(C)[C@@H]2CCC(N)=O.[C-]#N.[Co+3] | inactive: 12.3%
O=[N+]([O-])c1ccc(OP2(=O)COCCO2)cc1 (stereo not given) | inactive: 13.5%
Cc1cc(-c2cccc3ccccc23)c(C)cn1.O=[N+]([O-])c1cc([N+](=O)[O-])c(O)c([N+](=O)[O-])c1 | inactive: 6%
O=[N+]([O-])c1cc([N+](=O)[O-])c(NCC2CCS(=O)(=O)C2)c([N+](=O)[O-])c1 (stereo not given) | inactive: -4.5%
Cc1c(C(c2ccc3c(c2)OCO3)c2c(C)n(C)n(-c3ccccc3)c2=O)c(=O)n(-c2ccccc2)n1C.O=[N+]([O-])c1cc([N+](=O)[O-])c(O)c([N+](=O)[O-])c1 | inactive: -4%

Structure (SMILES) | activity change (cytotoxicity)
COc1ccc(OP(C)(=O)Nc2cccc(Br)c2)cc1 (stereo not given) | inactive: -6.2%
CN(C)CCOC(=O)C(O)(c1ccccc1)C1CCCCC1 (stereo not given) | inactive: -24.7%
COc1ccc(NP(C)(=O)Oc2ccccc2OC)cc1 (stereo not given) | inactive: -6.5%
CP(=O)(Nc1ccc2c(c1)OCCO2)Oc1ccccc1 (stereo not given) | inactive: -6.6%
Cc1ccccc1NP(C)(=O)Nc1ccccc1C | inactive: 13.1%
CP(=O)(Nc1ccc(SC(F)(F)F)cc1)Oc1ccc(F)cc1 (stereo not given) | inactive: 2.2%
CCOP(C)(=S)SCC(=O)NC(C)(CC)C(=O)O (stereo not given) | inactive: -1.3%
O=C(OC1CN2CCC1CC2)c1ccc([N+](=O)[O-])cc1 (stereo not given) | inactive: -4.2%
O=C(OCCN1CCN(CCOCc2ccccc2)CC1)C(O)(c1ccccc1)c1ccccc1 | inactive: 2.7%
COc1ccc2c(c1O)-c1c(O)c(OC)cc3c1[C@H](C2)[N+](C)(C)CC3.O=[N+]([O-])c1cc([N+](=O)[O-])c([O-])c([N+](=O)[O-])c1[O-] | inactive: 10%
O=[N+]([O-])c1cc([N+](=O)[O-])c(Nc2ccc(Cl)cc2)c([N+](=O)[O-])c1 | inactive: -14.1%
CP(=O)(Nc1ccccc1F)Oc1ccccc1 (stereo not given) | inactive: -9%
CC(C)c1ccc(OP(C)(=O)Nc2ccc(SC(F)(F)F)cc2)cc1 (stereo not given) | inactive: 10.5%
Cc1c([N+](=O)[O-])cc([N+](=O)[O-])c(Br)c1[N+](=O)[O-] | inactive: -1.8%
CCN(CC)CCCOC(=O)C(O)(c1ccccc1)C1CCCCC1 (stereo not given) | inactive: -2.3%
CP(=O)(Nc1ccccc1)Oc1ccc(F)cc1 (stereo not given) | inactive: -6.3%
O=[N+]([O-])c1cc([N+](=O)[O-])c(OC2CCCCC2O)c([N+](=O)[O-])c1 (stereo not given) | inactive: -1.9%
CCCCCOc1ccc(NP(C)(=O)Oc2ccc(Cl)cc2Cl)cc1 (stereo not given) | inactive: 13.7%
CCOC(=O)c1ccc(NP(C)(=O)Oc2ccc(F)cc2)cc1 (stereo not given) | inactive: -2%
COc1ccc(OP(C)(=O)Nc2ccc(SC(F)(F)F)cc2)cc1 (stereo not given) | inactive: 3.4%
CP(=O)(OCCOc1ccccc1)OCCOc1ccccc1 | inactive: 2.8%
CP(=O)(Nc1ccc(Cl)cc1Cl)Oc1ccccc1 (stereo not given) | inactive: 5%
CCCCCCCCCCCCCCCC1C[N+](C)(C)CCOP(C)(=O)O1 (stereo not given) | inactive: -23%
Cc1cc(C)cc(OP(C)(=O)Nc2cccc(C(F)(F)F)c2)c1 (stereo not given) | inactive: -1.1%

Structure (SMILES) | activity change (cytotoxicity)
O=C1C(O)=C([N+](=O)[O-])C(=O)C(O)=C1[N+](=O)[O-] | inactive: 5.8%
COc1ccccc1OP(C)(=O)Nc1ccc(C)c(C)c1 (stereo not given) | inactive: -1.5%
COc1ccc(OP(C)(=O)Nc2ccccc2Br)cc1 (stereo not given) | inactive: 0.7%
O=[N+]([O-])c1cc([N+](=O)[O-])c(Nc2ccccn2)c([N+](=O)[O-])c1 | inactive: 4.1%
Cc1c(NP(C)(=O)Oc2ccc(C(C)C)cc2)c(=O)n(-c2ccccc2)n1C (stereo not given) | inactive: -10.3%
COc1ccccc1OP(C)(=O)Nc1ccc(C)cc1C (stereo not given) | inactive: -10.7%
CP(=O)(Nc1ccccn1)Oc1ccccc1 (stereo not given) | inactive: -3.8%
CCc1ccc(OP(C)(=O)O)cc1 | inactive: -11.1%
COc1ccccc1OP(C)(=O)Nc1ccc(Br)cc1 (stereo not given) | inactive: 10.3%
COc1ccc(OP(C)(=O)Nc2ccccn2)cc1 (stereo not given) | inactive: -21.1%
CN(C)CCOC(=O)C(O)(c1ccccc1)C1CCCC1 (stereo not given) | inactive: -24%
CC(C)(C)c1ccc(OP(C)(=O)O)cc1 | inactive: 8.4%
COc1ccccc1OP(C)(=O)Nc1ccccc1Br (stereo not given) | inactive: 8.8%
CP(=O)(Nc1ccc(Cl)cc1)Oc1ccc(F)cc1 (stereo not given) | inactive: -13%
CN(C)C(=O)c1c([N+](=O)[O-])cc([N+](=O)[O-])cc1[N+](=O)[O-] | inactive: 13.8%
COc1ccc(OP(C)(=O)Nc2ccc(Br)cc2)cc1 (stereo not given) | inactive: 6.2%
CCN(CC)CC(O)COC(=O)C(O)(c1ccccc1)C1CCCCC1 (stereo not given) | inactive: -4.5%
O=C(OCCCN1CCCC1)C(O)(c1ccccc1)C1CCCCC1 (stereo not given) | inactive: 7%
COc1ccccc1OP(C)(=O)Nc1c(C)n(C)n(-c2ccccc2)c1=O (stereo not given) | inactive: 6.5%
CCc1ccc(OP(C)(=O)Nc2cccnc2)cc1 (stereo not given) | inactive: 0.9%
CP(=O)(Oc1ccccc1)N1CCOC1=O (stereo not given) | inactive: 2.2%
CCOC(=O)c1ccc(NP(C)(=O)Oc2ccc(Cl)cc2)cc1 (stereo not given) | inactive: 9.3%
CP(=O)(OC12CC3CC(CC(C3)C1)C2)OC12CC3CC(CC(C3)C1)C2 | inactive: -15.1%
